biological target: Histone deacetylase 2 (Homo sapiens, UniProt Q92769); assay: Binding affinity to recombinant full length HDAC2 (unknown origin) assessed as covalent adduct formation by measuring fold change in adduct:protein ratio at 10 uM incubated for 2 hrs by intact-protein mass spectrometry analysis

Sequences of proteins named here, by UniProt entry; tags and fusion partners are left off.
UniProt Q92769, whole entry: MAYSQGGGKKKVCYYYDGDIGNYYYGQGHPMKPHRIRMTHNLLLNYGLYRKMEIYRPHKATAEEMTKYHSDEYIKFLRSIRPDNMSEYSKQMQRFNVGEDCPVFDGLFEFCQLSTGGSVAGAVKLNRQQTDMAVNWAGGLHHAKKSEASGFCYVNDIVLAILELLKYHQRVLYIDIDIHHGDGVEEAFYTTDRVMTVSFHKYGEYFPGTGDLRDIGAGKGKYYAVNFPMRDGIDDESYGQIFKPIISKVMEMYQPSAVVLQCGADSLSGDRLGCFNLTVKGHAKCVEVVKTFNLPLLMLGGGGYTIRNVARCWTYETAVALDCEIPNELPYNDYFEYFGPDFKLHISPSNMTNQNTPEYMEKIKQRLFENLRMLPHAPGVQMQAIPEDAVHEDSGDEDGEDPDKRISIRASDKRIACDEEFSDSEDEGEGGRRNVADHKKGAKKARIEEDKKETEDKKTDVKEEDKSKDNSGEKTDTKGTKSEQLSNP

Row | fold change (FC) | SMILES
1 | 3.4 | Nc1ccccc1NC(=O)c1ccc(CNC(=O)OC2CCN(C(=O)CCl)CC2)cc1
2 | 10 | Nc1ccccc1NC(=O)c1ccc(CNC(=O)OC2CCN(S(=O)(=O)c3c(F)c(F)c(F)c(F)c3F)CC2)cc1
3 | 10 | C#CC(=O)N1CCC(OC(=O)NCc2ccc(C(=O)Nc3ccccc3N)cc2)CC1
4 | 10 | C=CS(=O)(=O)N1CCC(OC(=O)NCc2ccc(C(=O)Nc3ccccc3N)cc2)CC1

Reference: ChEMBL document CHEMBL5375983, “Discovery of YSR734: A Covalent HDAC Inhibitor with Cellular Activity in Acute Myeloid Leukemia and Duchenne Muscular Dystrophy” (J Med Chem, 2023)
